# Target: T1, Peroxisome proliferator-activated receptor delta (Homo sapiens, UniProt Q03181)
# T1 sequence (Q03181 whole entry): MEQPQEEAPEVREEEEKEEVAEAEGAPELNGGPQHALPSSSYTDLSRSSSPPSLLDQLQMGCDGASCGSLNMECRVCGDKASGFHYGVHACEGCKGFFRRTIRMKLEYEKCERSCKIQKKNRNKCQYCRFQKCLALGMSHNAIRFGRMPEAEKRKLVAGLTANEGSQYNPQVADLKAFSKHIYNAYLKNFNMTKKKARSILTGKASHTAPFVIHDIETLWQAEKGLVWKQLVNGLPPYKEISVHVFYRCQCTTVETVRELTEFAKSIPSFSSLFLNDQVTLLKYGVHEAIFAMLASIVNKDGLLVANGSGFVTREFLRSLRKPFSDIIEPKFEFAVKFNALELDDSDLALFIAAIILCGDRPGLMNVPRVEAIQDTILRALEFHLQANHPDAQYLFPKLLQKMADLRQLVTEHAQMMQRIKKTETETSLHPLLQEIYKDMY
row,SMILES,EC50 [nM]
1,C/C(=C\COc1ccc(C)cc1CN(C)C(=O)c1ccc(-c2ccco2)cc1)CCC(=O)O,22.6
2,C/C(=C\COc1ccccc1CN(C)C(=O)c1ccc(-c2ccco2)c(Cl)c1)CCC(=O)O,1.59
3,C/C(=C\COc1ccccc1CN(C)C(=O)c1ccc(-c2ccco2)c(F)c1)CCC(=O)O,1.93
4,C/C(=C\COc1ccc(F)cc1CN(C)C(=O)c1ccc(-c2ccco2)cc1)CCC(=O)O,5.51
